From patent US20110152252A1 (priority 2007, published 2011)

Assay: Solubility
Assay type: physicochemical

CN1C(=O)CN=C(c2ccc(Cl)cc2)c2cc(Cl)ccc21
solubility in DMSO or ethanol: soluble | solubility in water / aqueous solutions: insoluble
